# From PubChem BioAssay AID720582 (The Scripps Research Institute Molecular Screening Center, 2013)
# By UniProt entry, the sequences of proteins in these tests, tags left out. Residues count along the entry.
# UniProt O14672, 214-748 limits assumed: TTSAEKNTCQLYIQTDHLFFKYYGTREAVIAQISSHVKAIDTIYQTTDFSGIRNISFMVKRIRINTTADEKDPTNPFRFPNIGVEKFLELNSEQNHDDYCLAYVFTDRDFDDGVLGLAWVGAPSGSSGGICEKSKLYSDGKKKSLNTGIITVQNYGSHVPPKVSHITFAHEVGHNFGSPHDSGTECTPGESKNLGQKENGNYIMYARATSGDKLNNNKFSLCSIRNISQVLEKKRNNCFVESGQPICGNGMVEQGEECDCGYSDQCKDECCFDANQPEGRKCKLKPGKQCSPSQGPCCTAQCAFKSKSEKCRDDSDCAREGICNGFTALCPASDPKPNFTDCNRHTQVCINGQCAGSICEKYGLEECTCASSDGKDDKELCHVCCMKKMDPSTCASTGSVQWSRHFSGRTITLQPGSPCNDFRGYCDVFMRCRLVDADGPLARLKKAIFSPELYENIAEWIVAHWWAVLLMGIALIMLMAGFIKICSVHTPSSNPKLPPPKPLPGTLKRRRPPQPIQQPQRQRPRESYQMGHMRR
# The list shows a part of the results, in another mix than the full data. Activity calls are given as the source filed them.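 The calls were made as follows: active = inhibition above a per-campaign cutoff equal to the mean of compounds falling between control-based bounds plus 3 SD (cut at about 20% in these data); inactive = the rest.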
# Biological target: Disintegrin and metalloproteinase domain-containing protein 10 (Homo sapiens) (UniProt O14672)
# Assay: human ADAM10 inhibitors, primary screen, biochemical, QFRET, HTS (AID 720582);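 also: 0% = DMSO wells while the 100% control is not disclosed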
# Settings: recombinant ADAM10, EDANS/DABCYL FRET peptide cleavage, 3 h; at 7 µM; active compounds read high
row,SMILES,inhibition
1,O=[N+]([O-])c1cc([N+](=O)[O-])c(-n2nnc3ccccc32)c([N+](=O)[O-])c1,inactive: -4.95%
2,CN(Cc1cccnc1)C(=O)COc1ccc(Cl)c(Cl)c1.O=[N+]([O-])c1cc([N+](=O)[O-])c(O)c([N+](=O)[O-])c1,inactive: -5.01%
3,O=[N+]([O-])c1cc([N+](=O)[O-])c(-c2cnn(-c3ccccc3)c2)c([N+](=O)[O-])c1,inactive: 2.73%
4,Cc1nc2ccc3ccccc3c2s1.O=[N+]([O-])c1cc([N+](=O)[O-])c(O)c([N+](=O)[O-])c1,inactive: 8.33%
5,O=[N+]([O-])c1cc([N+](=O)[O-])c(Nc2nnnn2CCO)c([N+](=O)[O-])c1,inactive: -1.64%
6,CCOC(=O)C(CC)C1=NC(C)(C)Cc2ccccc21.O=[N+]([O-])c1cc([N+](=O)[O-])c(O)c([N+](=O)[O-])c1 (configuration not stated),inactive: 2.9%
7,CN1CCCCC1COC(=O)C1(O)c2ccccc2CCc2ccccc21 (configuration not stated),inactive: -1.55%
8,COc1ccccc1OP(C)(=O)Nc1c(C)cccc1C (configuration not stated),inactive: -1.32%
9,CP(=O)(Nc1ccc(SC(F)(F)F)cc1)Oc1ccccc1 (configuration not stated),inactive: 1.88%
10,CCCOc1ccc(NP(C)(=O)Oc2ccc(Cl)cc2)cc1 (configuration not stated),inactive: 3.66%
11,COc1ccc(-c2ccccn2)cc1.O=[N+]([O-])c1cc([N+](=O)[O-])c(O)c([N+](=O)[O-])c1,inactive: 1.21%
12,O=C(O)c1cccc(Nc2c([N+](=O)[O-])cc([N+](=O)[O-])cc2[N+](=O)[O-])c1,inactive: 13.1%
13,CC1=NCCc2c1[nH]c1ccccc21.O=[N+]([O-])c1cc([N+](=O)[O-])c(O)c([N+](=O)[O-])c1,inactive: -38.6%
14,COc1ccccc1OP(C)(=O)Nc1cccc(Br)c1 (configuration not stated),inactive: 7.07%
15,Cc1cc(C)cc(OP(C)(=O)Nc2ccc(C)cc2C)c1 (configuration not stated),inactive: 5.91%
16,CCOC(=O)c1ccc(NP(C)(=O)Oc2cc(C)cc(C)c2)cc1 (configuration not stated),inactive: 1.72%
17,CP(=O)(Nc1cccc(Br)c1)Oc1ccccc1 (configuration not stated),inactive: 1.93%
18,Cc1cc(C)cc(OP(C)(=O)Nc2ccccn2)c1 (configuration not stated),inactive: -4.42%
19,Cc1ccc(C)c(NP(C)(=O)Oc2ccccc2)c1 (configuration not stated),inactive: 3.69%
20,CCN(CC)CCCOC(=O)C(O)(c1ccccc1)c1ccccc1,inactive: -6.75%
21,COc1ccccc1-c1ccccn1.O=[N+]([O-])c1cc([N+](=O)[O-])c(O)c([N+](=O)[O-])c1,inactive: -7.9%
22,O=[N+]([O-])c1cc([N+](=O)[O-])c(Nc2cccnc2)c([N+](=O)[O-])c1,inactive: 5.05%
23,CC(C)(C)c1ccc(OP(C)(=O)Nc2ccc(SC(F)(F)F)cc2)cc1 (configuration not stated),inactive: -3.85%
24,Cc1cccc(C)c1OP(C)(N)=O (configuration not stated),inactive: 7.88%
25,O=[N+]([O-])c1ccc2c(c1)C=Nc1ccccc1O2,inactive: 10.8%

row,SMILES,inhibition
1,CCOC(=O)c1ccc(NP(C)(=O)Oc2ccccc2)cc1 (configuration not stated),inactive: -12.7%
2,COc1ccccc1OP(C)(=O)Nc1ccc(C)cc1 (configuration not stated),inactive: -18.2%
3,Cc1ccc(NP(C)(=O)Oc2ccccc2)c(C)c1 (configuration not stated),inactive: -6.71%
4,COc1ccccc1OP(C)(=O)Nc1cc(Cl)ccc1C (configuration not stated),inactive: -6.8%
5,COc1ccc(OP(C)(=O)Nc2cccc(F)c2)cc1 (configuration not stated),inactive: 0.02%
6,Cc1cc(C)cc(OP(C)(N)=O)c1 (configuration not stated),inactive: 5.44%
7,CP(=S)(Nn1cnnc1)Oc1ccccc1 (configuration not stated),inactive: 4.72%
8,COc1ccccc1OP(C)(=O)Nc1ccccc1 (configuration not stated),inactive: -10.4%
9,CP(=O)(Nc1ccccc1Br)Oc1ccccc1 (configuration not stated),inactive: -2.68%
10,CP(=O)(Nc1ccc(SC(F)(F)F)cc1)Oc1ccc(Cl)cc1 (configuration not stated),inactive: 5.72%
11,Cc1cccc(C)c1OP(C)(=O)Nc1ccc(SC(F)(F)F)cc1 (configuration not stated),inactive: -49.2%
12,CP(=O)(Oc1ccccc1)OC(c1ccccc1)C(F)(F)F (configuration not stated),inactive: 4.95%
13,CCc1ccc(OP(C)(=O)N2CCN(c3ccc([N+](=O)[O-])cc3)CC2)cc1 (configuration not stated),inactive: 0.39%
14,CP(=O)(NC(=O)Nc1ccccc1)Oc1ccccc1 (configuration not stated),inactive: 1.25%
15,Cc1cc(C)cc(OP(C)(=O)Nc2ccc(SC(F)(F)F)cc2)c1 (configuration not stated),inactive: 3.31%
16,CCOP(C)(=S)SCC(=O)NC(C)C(=O)O (configuration not stated),inactive: 7.88%
17,O=[N+]([O-])c1cc([N+](=O)[O-])c(O)c([N+](=O)[O-])c1.c1ccc(Oc2ccncc2)cc1,inactive: 3.24%
18,CCOC(=O)c1ccc(NP(C)(=O)Oc2ccc(OC)cc2)cc1 (configuration not stated),inactive: -2.97%
19,CP(=O)(Nc1ccccn1)Oc1ccc(Cl)cc1 (configuration not stated),inactive: -4.14%
20,CCN(CC)CC(O)COC(=O)C(O)(c1ccccc1)C1CCCCC1 (configuration not stated),inactive: 3.66%
21,COc1ccc(OP(C)(=O)Nc2ccc(Br)cc2)cc1 (configuration not stated),inactive: 2.52%
22,CP(=O)(Oc1ccccc1)N1CCOC1=O (configuration not stated),inactive: 5.4%
23,CCc1ccc(OP(C)(=O)Nc2cccnc2)cc1 (configuration not stated),inactive: -7.49%
24,COc1ccccc1OP(C)(=O)Nc1c(C)n(C)n(-c2ccccc2)c1=O (configuration not stated),inactive: 1.9%
25,O=C(OCCCN1CCCC1)C(O)(c1ccccc1)C1CCCCC1 (configuration not stated),inactive: -4.06%

row,SMILES,inhibition
1,CP(=O)(Nc1ccc(Cl)cc1)Oc1ccc(F)cc1 (configuration not stated),inactive: 6.47%
2,CC(C)(C)c1ccc(OP(C)(=O)O)cc1,inactive: -3.5%
3,COc1ccccc1OP(C)(=O)Nc1ccccc1Br (configuration not stated),inactive: 6.1%
4,CN(C)C(=O)c1c([N+](=O)[O-])cc([N+](=O)[O-])cc1[N+](=O)[O-],inactive: -8.55%
5,Nc1ccc2c(ccc3cccnc32)n1.O=[N+]([O-])c1cc([N+](=O)[O-])c(O)c([N+](=O)[O-])c1,inactive: -153%
6,CP(=O)(OC12CC3CC(CC(C3)C1)C2)OC12CC3CC(CC(C3)C1)C2,inactive: -6.63%
7,CCOC(=O)c1ccc(NP(C)(=O)Oc2ccc(Cl)cc2)cc1 (configuration not stated),inactive: -0.42%
8,O=C1C(O)=C([N+](=O)[O-])C(=O)C(O)=C1[N+](=O)[O-],inactive: -31.2%
9,Cc1cc(C)cc(OP(C)(=O)Nc2cccc(C(F)(F)F)c2)c1 (configuration not stated),inactive: 4.63%
10,COc1ccc(OP(C)(=O)Nc2ccccc2Br)cc1 (configuration not stated),inactive: -7.6%
11,COc1ccccc1OP(C)(=O)Nc1ccc(C)c(C)c1 (configuration not stated),inactive: -7.5%
12,CP(=O)(OCCOc1ccccc1)OCCOc1ccccc1,inactive: 3.54%
13,CCCCCCCCCCCCCCCC1C[N+](C)(C)CCOP(C)(=O)O1 (configuration not stated),inactive: -2.63%
14,CP(=O)(Nc1ccc(Cl)cc1Cl)Oc1ccccc1 (configuration not stated),inactive: -2.36%
15,COc1ccccc1OP(C)(=O)Nc1ccc(Br)cc1 (configuration not stated),inactive: -0.38%
16,CN(C)CCOC(=O)C(O)(c1ccccc1)C1CCCC1 (configuration not stated),inactive: 7.98%
17,COc1ccc(OP(C)(=O)Nc2ccccn2)cc1 (configuration not stated),inactive: -2.3%
18,O=[N+]([O-])c1cc([N+](=O)[O-])c(Nc2ccccn2)c([N+](=O)[O-])c1,inactive: -1.55%
19,Cc1c(NP(C)(=O)Oc2ccc(C(C)C)cc2)c(=O)n(-c2ccccc2)n1C (configuration not stated),inactive: -0.51%
20,CCc1ccc(OP(C)(=O)O)cc1,inactive: -2.02%
21,CP(=O)(Nc1ccccn1)Oc1ccccc1 (configuration not stated),inactive: -1.15%
22,COc1ccccc1OP(C)(=O)Nc1ccc(C)cc1C (configuration not stated),inactive: -1.23%
23,O=[N+]([O-])c1cc([N+](=O)[O-])c(Nc2ccc(Cl)cc2)c([N+](=O)[O-])c1,inactive: 9.81%
24,CC(C)c1ccc(OP(C)(=O)Nc2ccc(SC(F)(F)F)cc2)cc1 (configuration not stated),inactive: 8.78%
25,CP(=O)(Nc1ccccc1F)Oc1ccccc1 (configuration not stated),inactive: -4.17%

row,SMILES,inhibition
1,O=C(OCCN1CCN(CCOCc2ccccc2)CC1)C(O)(c1ccccc1)c1ccccc1,inactive: 7.7%
2,O=C(OC1CN2CCC1CC2)c1ccc([N+](=O)[O-])cc1 (configuration not stated),inactive: 2.91%
3,CCN(CC)CCCNc1ccccc1[N+](=O)[O-].O=[N+]([O-])c1cc([N+](=O)[O-])c(O)c([N+](=O)[O-])c1,inactive: 0.63%
4,COc1ccc(OP(C)(=O)Nc2ccc(SC(F)(F)F)cc2)cc1 (configuration not stated),inactive: 4.22%
5,CCOC(=O)c1ccc(NP(C)(=O)Oc2ccc(F)cc2)cc1 (configuration not stated),inactive: -5.77%
6,CCN(CC)CCCOC(=O)C(O)(c1ccccc1)C1CCCCC1 (configuration not stated),inactive: -13%
7,Cc1c([N+](=O)[O-])cc([N+](=O)[O-])c(Br)c1[N+](=O)[O-],inactive: 12.5%
8,CCCCCOc1ccc(NP(C)(=O)Oc2ccc(Cl)cc2Cl)cc1 (configuration not stated),inactive: 1.35%
9,O=[N+]([O-])c1cc([N+](=O)[O-])c(OC2CCCCC2O)c([N+](=O)[O-])c1 (configuration not stated),inactive: -2.55%
10,COc1ccc(OP(C)(=O)Nc2cccc(Br)c2)cc1 (configuration not stated),inactive: 12.2%
11,COc1ccc(NP(C)(=O)Oc2ccccc2OC)cc1 (configuration not stated),inactive: 2.33%
12,CN(C)CCOC(=O)C(O)(c1ccccc1)C1CCCCC1 (configuration not stated),inactive: -2.21%
13,O=[N+]([O-])c1cc([N+](=O)[O-])c(NCC2CCS(=O)(=O)C2)c([N+](=O)[O-])c1 (configuration not stated),inactive: 11%
14,Cc1cc(-c2cccc3ccccc23)c(C)cn1.O=[N+]([O-])c1cc([N+](=O)[O-])c(O)c([N+](=O)[O-])c1,inactive: -5.49%
15,O=[N+]([O-])c1ccc(OP2(=O)COCCO2)cc1 (configuration not stated),inactive: 1.84%
16,Cc1c(C(c2ccc3c(c2)OCO3)c2c(C)n(C)n(-c3ccccc3)c2=O)c(=O)n(-c2ccccc2)n1C.O=[N+]([O-])c1cc([N+](=O)[O-])c(O)c([N+](=O)[O-])c1,inactive: -4.23%
17,CP(=O)(Nc1ccc(SC(F)(F)F)cc1)Oc1ccc(F)cc1 (configuration not stated),inactive: 12.4%
18,CCOP(=O)(CC)OCC,inactive: -3.54%
19,CCOP(C)(=S)SCC(=O)NC(C)(CC)C(=O)O (configuration not stated),inactive: -2.71%
20,CP(=O)(Nc1ccc2c(c1)OCCO2)Oc1ccccc1 (configuration not stated),inactive: -0.99%
21,O=[N+]([O-])c1cc([N+](=O)[O-])c(C(F)(F)F)c([N+](=O)[O-])c1O,inactive: 6.16%
22,Cc1ccccc1NP(C)(=O)Nc1ccccc1C,inactive: 1.85%
